Our source for the IC50 values is patent US6548667B2, “Sulfonamide derivative as a matrix metalloproteinase inhibitor” (Samsung Electronics Co. Ltd., priority 2000, dated 2003).

Protein sequences, listed by entry. Tags and fused reporters are not part of them. Residues count along the entry.
UniProt P08253, 110-660 limits assumed: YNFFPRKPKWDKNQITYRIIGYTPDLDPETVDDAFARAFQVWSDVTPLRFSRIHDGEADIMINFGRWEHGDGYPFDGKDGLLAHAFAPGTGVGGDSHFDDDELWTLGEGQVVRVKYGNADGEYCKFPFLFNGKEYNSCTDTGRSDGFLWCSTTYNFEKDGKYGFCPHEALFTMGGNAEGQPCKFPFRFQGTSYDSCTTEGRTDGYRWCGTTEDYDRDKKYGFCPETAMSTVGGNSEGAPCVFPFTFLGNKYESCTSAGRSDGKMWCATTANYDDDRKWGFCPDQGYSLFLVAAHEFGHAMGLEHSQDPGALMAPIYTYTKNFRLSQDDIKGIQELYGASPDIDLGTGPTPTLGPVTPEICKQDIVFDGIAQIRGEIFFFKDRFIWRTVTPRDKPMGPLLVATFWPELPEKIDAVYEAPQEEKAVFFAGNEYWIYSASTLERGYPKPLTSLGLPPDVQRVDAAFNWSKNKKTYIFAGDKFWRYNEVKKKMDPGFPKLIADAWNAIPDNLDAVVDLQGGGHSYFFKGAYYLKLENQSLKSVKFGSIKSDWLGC
UniProt P14780, 107-707 limits assumed: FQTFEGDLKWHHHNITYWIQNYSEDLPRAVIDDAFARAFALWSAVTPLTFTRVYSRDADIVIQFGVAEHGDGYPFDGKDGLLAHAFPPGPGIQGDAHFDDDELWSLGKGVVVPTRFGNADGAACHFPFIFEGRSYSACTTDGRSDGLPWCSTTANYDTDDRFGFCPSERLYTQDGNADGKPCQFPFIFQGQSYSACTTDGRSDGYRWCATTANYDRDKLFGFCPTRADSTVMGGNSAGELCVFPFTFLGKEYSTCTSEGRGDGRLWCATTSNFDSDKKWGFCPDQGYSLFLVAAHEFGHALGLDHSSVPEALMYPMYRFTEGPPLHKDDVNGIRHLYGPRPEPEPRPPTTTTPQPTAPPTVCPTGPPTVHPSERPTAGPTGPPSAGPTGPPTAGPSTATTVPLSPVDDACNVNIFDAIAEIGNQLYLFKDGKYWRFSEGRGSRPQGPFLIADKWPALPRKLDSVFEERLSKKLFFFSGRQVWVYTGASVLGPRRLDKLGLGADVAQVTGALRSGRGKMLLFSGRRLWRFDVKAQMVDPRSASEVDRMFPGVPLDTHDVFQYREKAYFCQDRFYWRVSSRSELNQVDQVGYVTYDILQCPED

For one experiment, the target named is gelatinase A (MMP-2) (Homo sapiens, UniProt P08253). Nature of the experiment: In vitro inhibition on gelatinase A (MMP-2), fluorescent synthetic peptide substrate. To be noted: read-out: IC50 (nM) MMP-2; Table 1. The text has this:
In vitro Inhibition on Gelatinase A (MMP-2)
(§1) The present test was accomplished by measuring the fluorescence intensity of a fluorescent material (7-methoxycoumarin-4-acetyl-Pro—Leu—Gly) produced from the cleavage of a fluorescent synthetic peptide substrate ((7-methoxycoumarin-4-acetyl-Pro—Leu—Gly—Leu-β-(2,4-dinitrophenylamino) Ala—Ala—Arg—NH2 (Sigma Chem. Co. U.S.A.)) by gelatinase A (Boehringer Manneheim cat# 1782916, from human fibrosarcoma cells).
(§2) Enzymatic reaction employing a fluorescent synthetic substrate was accomplished by putting test compounds, TNBC buffer solution (25 mM Tris-HCl, pH 7.5, 0.1M NaCl, 0.01% Brij-35, 5 mM CaCl2), gelatinase A (final concentration in well: 4.17 nM) activated with 1 mM of APMA (aminophenylmercuric acetate) for 30 minutes at 37° C. just before the enzymatic reaction and the substrate, fluorescent synthetic peptide (final concentration in well: 9.15 uM) in 96 well plate and then reacting for 30 minutes at 37° C., and the fluorescence intensity was measured at excitation 328 nm and emission 393 nm by spectrofluorimeter (Fmax(molecular device)). The inhibition rate (%) was calculated from the following equation: [formula]
A represents fluorescence intensity before the reaction with an inhibitor;
B represents fluorescence intensity after the reaction with an inhibitor; […]
D represents fluorescence intensity after the reaction without an inhibitor.

For a further experiment, the target named is gelatinase B (MMP-9) (Homo sapiens, UniProt P14780). Nature of the experiment: In vitro inhibition on gelatinase B (MMP-9), fluorescent synthetic peptide substrate. To be noted: read-out: IC50 (nM) MMP-9; Table 1.
Excerpt: as §1, §2
In vitro Inhibition on Gelatinase B (MMP-9) […]

What is called IC50 is the concentration needed to halve the response being measured.

Take `CCCCCCSc1nc2ccc(S(=O)(=O)NC(Cc3ccccc3)P(=O)(O)O)cc2s1` (centres unmarked): the 50% inhibitory concentration (IC50) worked out at 40100 nM at gelatinase A (MMP-2) and 290000 nM at gelatinase B (MMP-9).
